Yeast mating assay B: variants of the scFv Ab-14

Reference: Li et al. 2023, doi:10.1038/s41467-023-39022-2. File: FLAb, binding data.

Target: peptide PDVDLGDISGINAS, taken from heptad repeat 2 (HR2) of SARS-CoV-2 spike.

Each scFv is VH, a (GGGGS)3 linker, VL, as in the parent Ab-14, and differs from it in the CDRs of the light chain only.
VH: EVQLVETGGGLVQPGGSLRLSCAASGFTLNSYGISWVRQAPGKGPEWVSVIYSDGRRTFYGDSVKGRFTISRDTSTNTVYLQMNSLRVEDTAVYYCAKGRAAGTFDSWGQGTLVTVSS
VL: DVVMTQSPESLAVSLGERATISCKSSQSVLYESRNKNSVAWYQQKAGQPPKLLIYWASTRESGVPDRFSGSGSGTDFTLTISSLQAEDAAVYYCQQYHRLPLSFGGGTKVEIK

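The parent was found by panning a naive human phage display library on the peptide. The variants were designed computationally from a first round of random CDR variants and then made and measured. Several design methods are mixed in this list. Affinity was read by AlphaSeq, a pooled yeast mating assay with surface-displayed partners. Binding brings cells together so that they mate, and sequencing counts the barcode pairs among the diploids. The ratio of observed to expected reads was calibrated, replicate by replicate, on BCL2-family standards whose Kd was known from biolayer interferometry. The assay was run in six technical replicates.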

Variants are written as CDR1, CDR2 and CDR3 of the light chain (limits as in the source). Parent: KSSQSVLYESRNKNSVA, WASTRES, QQYHRLPLS.
This list holds designs with at most six substitutions.
Values are log10 of the apparent Kd in nM; lower means stronger binding.
The mean shown is taken over the replicates in which the pair was detected.
Where no diploid with the target was found in that replicate, the entry reads "nd": below detection, most likely a poor binder, though not proof of it.
The parent sequence was in this pool as ten entries: three were never detected, three once, and four in most replicates, with averages from 0.34 to 2.37.
Background: pairings of all light chain designs with three empty control strains gave a value in 4% of cases (median 2.64, 5th percentile 1.59). Values in that range, when seen in few replicates, are hard to tell from nonspecific mating.
The authors' rule: three or more of the six replicates give a measured affinity, fewer mean a poor binder.
Values of this round are not directly comparable with the first-round values of the same sequences.

For KCSQSVLDESRNKNSVA / WASTRES / QQYHRLPLS, the assay gave 1.45, 2.13, 1.47, 1.46, nd, 2.04 (mean 1.71). With KLSQSVLYESRQKNSVA / GASTRES / QQYHRLPLS the result was 2.20, nd, 2.00, nd, nd, nd (mean 2.10). For KFSQSVLCESRNKNSVA / TASQRES / FQYHRLPLS, the assay gave nd, nd, nd, nd, nd, nd. The variant KSSQSVLYESRNKNSVA / WASTRES / QDYHRLPLS gave nd, 1.36, nd, nd, 1.79, nd (mean 1.57). The variant KSSLSGLYESRNKHSHA / WASTRES / QQYHRLPLS showed nd, nd, nd, nd, nd, nd. With KQSQSVGYGSRNKWSVA / EASTRES / QQYHRLPLS the result was 0.78, 0.59, 0.54, 0.45, 0.51, 0.53 (mean 0.57). For KYSQSVLYESRNKNSVA / NASQRES / QQYHRLPLS, the assay gave 0.45, 0.60, 0.33, 0.47, 0.55, 0.33 (mean 0.45). The variant KFSQLQLYESRNKNSVA / NASTRES / QQYWRLPLS showed 0.33, 0.24, 0.24, 0.39, -0.08, 0.52 (mean 0.28).

The variant KSSQSVLYESVNKDSVA / NASTRES / QQYHLLPLS gave 1.19, 1.07, 0.79, 0.73, 0.99, 1.30 (mean 1.01). With KVVQSVLYESRNKNSVA / NASQRES / QQYHRLPLS the result was 0.34, 0.02, 0.16, 0.22, 0.04, 0.27 (mean 0.17). The variant HSSGSVLYPSRNKNSVR / NASTRES / QQYHRLPGS gave nd, nd, nd, nd, nd, nd. The variant KQSQSVLYESRNKNSVA / DASTRES / QQYSRLPLS showed 0.04, -0.39, -0.20, -0.26, -0.30, -0.48 (mean -0.26). For KSSWSVLYESRNKFSVA / KASTRES / QQYHRLPFS, the assay gave nd, 1.72, nd, nd, 1.54, 3.45 (mean 2.24). For KSSQSVLYESRNKNSVA / AASERED / QQYHRLPLS, the assay gave 1.88, 1.66, 1.48, 2.19, 1.90, 2.78 (mean 1.98). With ASSQSVLYESRNKNSVA / GATTRES / QQYHRLPLS the result was 0.64, 0.22, 0.62, 0.61, 0.58, 0.26 (mean 0.49). For KLSQSVLYESRNSNAVA / NASTRES / QQYHRLPLS, the assay gave -0.03, -0.40, -0.13, -0.41, -0.49, -0.15 (mean -0.27).

For KFEQSVLYEDRNKNSVA / NASQRES / QQYHRLPLS, the assay gave 0.40, 0.27, 0.34, 0.31, 0.16, 0.18 (mean 0.28). The variant KSSQSVLYQSRNQNSVA / WASKRES / QQGHRLPLS gave nd, nd, nd, nd, nd, nd. With KFSQSVLYESRTFNSVA / NASTEES / QQYHRLPLS the result was 1.03, 0.78, 1.01, 0.63, 0.92, 1.54 (mean 0.98). For KLSQSTLYESRNKNSVA / NASTREQ / QQYHRLPLS, the assay gave -0.15, -0.22, -0.34, -0.22, -0.08, -0.07 (mean -0.18). For KISQSVLYESNNKNSVA / DAGWRES / QQYHRLPLS, the assay gave 0.09, -0.11, -0.07, 0.26, 0.14, 0.16 (mean 0.08). The variant KLDQSHLYESRNKNSVA / NANTREE / QQYHRLPLS showed 0.06, -0.11, -0.30, -0.18, -0.32, -0.14 (mean -0.16). With KQSQSVPYESRNKNSVA / GASTREQ / QQYHRLPLS the result was 0.24, 0.17, 0.25, 0.06, 0.18, 0.36 (mean 0.21). With KSSQSSLRESRNKNSVA / GASTRES / QQYARLPLS the result was 0.62, 0.72, 0.18, -0.07, 0.18, 0.19 (mean 0.31).

The variant KSSQSVLYESTNKNSVA / HASTRIS / QQYHELPLS gave 1.12, 0.53, 1.09, 1.29, 0.99, 1.21 (mean 1.04). For KSSQSHLEESRNKNSVA / WASTRES / QQYHRLPLS, the assay gave nd, nd, 1.92, 2.73, 1.79, 1.84 (mean 2.07). With KLSQSVLYESRNPNSVA / NASYRES / QQYHRLPLS the result was 0.10, -0.03, -0.20, -0.22, 0.00, -0.01 (mean -0.06). The variant KLSQSDLYESRNKNSVA / AASTRES / QQYHRLPLS showed 0.01, -0.15, -0.39, -0.43, -0.30, -0.14 (mean -0.24). The variant KSPASVLYESRNKNSVA / WASARES / QQYHRLPLS showed 2.10, 2.75, nd, 2.94, nd, 3.46 (mean 2.81). For KMSYSDAYESRNKNGVA / WASTRES / QQYHRLYLS, the assay gave nd, nd, nd, nd, nd, nd. The variant KFSQQMLYESRNKNNVA / EASHRES / QQYHRLPLS showed -0.26, -0.39, -0.53, -0.67, -0.49, -0.42 (mean -0.46). The variant KLSQSDNYESRNHNSVA / HASTRCS / QQYHRLPLS showed 0.86, 0.63, 0.39, 0.32, -0.02, 0.39 (mean 0.43).

With KWSQSVLGEERNKMSVA / NASTRES / QQYHRLPLS the result was 0.02, 0.09, -0.18, -0.23, 0.07, 0.03 (mean -0.03). For KSSQWGLEESSNYNSVA / WASTRES / QQYHKLPLS, the assay gave nd, 2.62, nd, 2.21, 2.58, nd (mean 2.47). The variant KSSQSVLYESRNRNSVA / WASMRES / QQYHRLPLS showed nd, 1.57, 1.83, 1.05, 3.05, nd (mean 1.87). For KLMQSWLYESRNKNSVA / NASTRLS / QQYHRLPLS, the assay gave 0.61, 0.45, 0.63, 0.30, 0.44, 0.78 (mean 0.54). The variant KYSQSVLYESTNKNSVA / WASTRES / QQYHRNPLS showed nd, nd, nd, nd, nd, nd. With KLQQSFLYESRNKNSVA / NASQRES / QQYHRLPLS the result was -0.22, -0.21, -0.10, -0.25, -0.35, -0.15 (mean -0.21). The variant KLSQSVMYESRNKNNVA / NASTRES / QQYHRLPLS showed -0.31, -0.57, -0.60, -0.60, -0.66, -0.50 (mean -0.54). For KSSPSVLYESGNKNSVA / NASTRMS / QQYHRLPLS, the assay gave 0.60, 0.71, 0.09, 0.54, 0.62, 0.47 (mean 0.50).

For HLSDSVLNESRNKNSVA / NASTRES / QQYHRLPLN, the assay gave 0.11, 0.32, 0.06, 0.36, 0.29, 0.46 (mean 0.27). The variant KSSLSVLFESRNKNSVA / NASTRES / QQYHRLPLS showed 0.77, 1.10, 0.38, 0.60, 0.62, 0.83 (mean 0.72). For KLQQSELYESRNKNSVA / NASTRLS / QDYHRLPLS, the assay gave -0.01, 0.14, 0.30, -0.05, 0.07, 0.14 (mean 0.10). With KSSFSVLYESGNKNSVA / HASTRED / QQYHRLPLS the result was 0.62, 0.45, 0.59, 0.63, 0.51, 0.87 (mean 0.61). With KSSQSVLYESTNKNSVA / QASTREE / SQYHRLPLH the result was 0.89, 0.44, 1.49, 1.08, 0.75, 1.69 (mean 1.06). For KSSISMLEESRNKNSVA / EASTRES / QQYHRLPLS, the assay gave 0.04, -0.07, 0.40, -0.05, -0.10, 0.39 (mean 0.10). The variant KIGQSVLYESRNKNSVA / KASTRES / QQYHRLPLS showed 0.20, 0.18, 0.14, 0.07, 0.11, 0.34 (mean 0.17). With KSSQSFLYESRNKNSVA / GASTRES / QDYHRLPLS the result was 0.45, 0.30, 0.35, 0.36, 0.18, 0.64 (mean 0.38).